## Antibody variant affinities, Ab-14 heavy chain, assay B

The measurements come from Li et al. 2023 (doi:10.1038/s41467-023-39022-2) through the FLAb antibody collection.

All variants were tested on one target, the spike HR2 peptide PDVDLGDISGINAS (SARS-CoV-2).

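The parent was found by panning a naive human phage display library on the peptide. These sequences belong to a second round, designed from the earlier measurements on random variants of the parent. Several design methods are mixed in this list. The assay is AlphaSeq: two haploid yeast populations carry antibody and antigen on their surface. Mating (16 h, 30 °C) was followed by selection of diploids and sequencing of their barcodes. A regression on co-assayed BCL2-family reference pairs converts the normalised counts of each replicate to an apparent Kd. Mating was done six times.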

Ab-14 is the parent antibody, in scFv form: VH, then a (GGGGS)3 linker, then VL. The light chain is unchanged in all variants.
VH: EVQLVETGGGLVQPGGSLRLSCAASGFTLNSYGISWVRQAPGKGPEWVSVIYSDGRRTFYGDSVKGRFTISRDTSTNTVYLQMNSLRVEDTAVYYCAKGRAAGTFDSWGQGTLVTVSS
VL: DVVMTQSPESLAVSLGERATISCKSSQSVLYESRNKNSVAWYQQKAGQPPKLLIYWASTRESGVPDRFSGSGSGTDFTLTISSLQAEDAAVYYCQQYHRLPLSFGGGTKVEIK

The parent's heavy chain CDRs are GFTLNSYGIS, VIYSDGRRTFYGDSVK, GRAAGTFDS; each variant's own CDRs replace them letter for letter. Kd is apparent (estimated from mating counts) and averaged on the log scale over replicates with a signal. Smaller is tighter. "nd" means that the variant was in the library but no mating with the target was seen in any replicate; the authors take this as a sign of poor binding, and no number exists. Entries are sorted by rising average, undetected variants last. The parent sequence was in this pool as ten entries: three were never detected, three once, and four in most replicates, with averages from 2.2 nM to 240 nM. Empty control strains, which show no peptide, gave a signal in 1% of pairings with all heavy chain designs; the median was 120 nM and 95% of these signals were weaker than 7.0 nM. No background was subtracted. Also given: how often the same scFv was detected with the empty control strains. The authors averaged sequences with at least three values out of six and counted those with two or fewer as poor binders. The range of this assay differs from that of the first round, and the authors advise against merging the two.

With GFDLNEYGIS | VIYADGQRTAYTDSVK | GEVAGTFDL the result was 46 pM (5 of 6 replicates; controls 0 of 18).
With GFDLNEYGIS | VIYADGVRTAYADDVK | GNEAGTFDV the result was 330 pM (6 of 6 replicates; controls 0 of 18).
With GFDLNEYGIS | VIYADGRRTAYVDSVK | GEVAGTFDS the result was 380 pM (6 of 6 replicates; controls 1 of 18).
With GFDLNEYGIS | VIYADGVRTAYSDSVK | GEVAGTFDI the result was 650 pM (6 of 6 replicates; controls 0 of 18).
With GFELNEYGIS | VIYSDGRRTFYGDSVK | GRAAETFDQ the result was 1.4 nM (5 of 6 replicates; controls 0 of 18).
With GFTLNQYGIS | VIYSDGRRTFYSDSVK | GRQAGTFDS the result was 1.5 nM (6 of 6 replicates; controls 0 of 18).
With GFSLNSYGIS | VIYSDGRRTFYVDSVK | GRQAGTFDS the result was 3.3 nM (6 of 6 replicates; controls 0 of 18).
With GFTLNSYGIS | VIYADGRRTFYGDSVK | GRNAGTFDY the result was 4.6 nM (6 of 6 replicates; controls 0 of 18).
With GFDLNSYGIS | VIYSDGRRTFYGDSVK | GNVAGTFDS the result was 8.6 nM (6 of 6 replicates; controls 0 of 18).
With GFDLNEYGIS | VIYADGVRTAYADSVK | GNNGGTFDV the result was 11 nM (6 of 6 replicates; controls 1 of 18).
With GFTLNSYGIS | VIYADGRRTFYGDSVK | GEAAGTFDG the result was 11 nM (6 of 6 replicates; controls 0 of 18).
With GFNLDEYGIS | VIYADGRRTFYADSVK | GNVAGTFDV the result was 11 nM (4 of 6 replicates; controls 0 of 18).
With GFQLNDYGIS | VIYSDGRRTYYGDSVK | GRAAGTFDS the result was 19 nM (6 of 6 replicates; controls 0 of 18).
With GFSLNSYGIS | VIYSDGRRTFYKDSVK | GKTAGTFDS the result was 25 nM (5 of 6 replicates; controls 0 of 18).
With GFFLNSYGIS | VIYSDGRRTFYDDSVK | GQLAGTFDS the result was 120 nM (6 of 6 replicates; controls 0 of 18).
With GQTLNSYGIS | VIYSDGRRTFYGDSVK | GREAKTFDS the result was 310 nM (1 of 6 replicates; controls 0 of 18).

Continued, with the values leading:

740 nM (1 of 6 replicates; controls 0 of 18): RFSLLSYGIS | VIYSDGRRTFYGDSVK | HRAAGTFDS.
760 nM (1 of 6 replicates; controls 0 of 18): GFDLNSYGIS | VIYSDGKRTFYADSVK | GRAAGTFDS.
nd (0 of 6 replicates; controls 0 of 18): GKNLDEYGIS | VIYADGVRSHYAESVK | GQHGTFGVA.
nd (0 of 6 replicates; controls 2 of 18): GFDLDQYGIS | VIYADGKRVAYTDDVK | GVNGGMALV.
nd (0 of 6 replicates; controls 0 of 18): GFGLEEYGIS | VIYADGMRKSYAGKVK | GRLSGTVIM.
nd (0 of 6 replicates; controls 0 of 18): GFTLNDYGIS | VIYSCGRRTFYGDSWK | GRAALTFIS.
nd (0 of 6 replicates; controls 0 of 18): GFTLNSCGIS | VIYADGRRTFYGDSVK | GRAAGTNKS.
nd (0 of 6 replicates; controls 0 of 18): GFGLDEYGIS | VIYADGMRTAYKNSVK | GSFTYVMFV.
nd (0 of 6 replicates; controls 0 of 18): GFDLNEYGIS | VIYADGQRRAYAANFK | GVNIGGFDA.
nd (0 of 6 replicates; controls 0 of 18): GFHLNSYGIS | VIYSDGKRTFYGDSVK | GKTAGTFDS.
nd (0 of 6 replicates; controls 0 of 18): GFTLNSYGIS | VIYSDGRRTFYSDSVK | GQLAGSFDT.
nd (0 of 6 replicates; controls 0 of 18): GFTLNEYGIS | VIYSDGRRTFYGDSVK | GRAALTFFS.
nd (0 of 6 replicates; controls 0 of 18): GFTLNEYGIS | VIYSDGMRTFYGDSVK | GRTAGTFWS.
nd (0 of 6 replicates; controls 0 of 18): GFTLNSYGIS | VIYSDGRRTFYADSVK | GEAAGTFRS.
nd (0 of 6 replicates; controls 0 of 18): GFWLNEYGIS | VIYSDGRRTFYHDSVK | GRAAVTFDK.
nd (0 of 6 replicates; controls 0 of 18): GFSLDEYGIS | VIYADGRRTMYCDNFK | GELGCTFVG.

Extract of 3 entries:

{"CDR-H1": "GFDLNEYGIS", "CDR-H2": "VIYADGVRTAYADSVK", "CDR-H3": "GNNGGTFDV", "Kd": "11 nM", "detected": "6 of 6", "control signals": "1 of 18"}
{"CDR-H1": "GFTLNEYGIS", "CDR-H2": "VIYSDGRRTFYGDSVK", "CDR-H3": "GRAALTFFS", "Kd": "nd", "detected": "0 of 6", "control signals": "0 of 18"}
{"CDR-H1": "GFDLNEYGIS", "CDR-H2": "VIYADGQRTAYTDSVK", "CDR-H3": "GEVAGTFDL", "Kd": "46 pM", "detected": "5 of 6", "control signals": "0 of 18"}